Experimental findings from ChEMBL document CHEMBL3351493, “Beta-aminoketones as prodrugs for selective irreversible inhibitors of type-1 methionine aminopeptidases” (Bioorg Med Chem Lett, 2014) are described below.

The test can be described thus: Glutathione reactivity assessed as second-order rate constant at 250 uM at pH 6.0 by HPLC-UV method.

With `C=C1Cc2cc(OC)c(OC)cc2C1=O`, the K was 4.6 M⁻¹ s⁻¹.
